Measured values taken from patent EP1976513B1.

Amino acid sequences for entries named in this document (tags omitted).
UniProt P31645, whole entry: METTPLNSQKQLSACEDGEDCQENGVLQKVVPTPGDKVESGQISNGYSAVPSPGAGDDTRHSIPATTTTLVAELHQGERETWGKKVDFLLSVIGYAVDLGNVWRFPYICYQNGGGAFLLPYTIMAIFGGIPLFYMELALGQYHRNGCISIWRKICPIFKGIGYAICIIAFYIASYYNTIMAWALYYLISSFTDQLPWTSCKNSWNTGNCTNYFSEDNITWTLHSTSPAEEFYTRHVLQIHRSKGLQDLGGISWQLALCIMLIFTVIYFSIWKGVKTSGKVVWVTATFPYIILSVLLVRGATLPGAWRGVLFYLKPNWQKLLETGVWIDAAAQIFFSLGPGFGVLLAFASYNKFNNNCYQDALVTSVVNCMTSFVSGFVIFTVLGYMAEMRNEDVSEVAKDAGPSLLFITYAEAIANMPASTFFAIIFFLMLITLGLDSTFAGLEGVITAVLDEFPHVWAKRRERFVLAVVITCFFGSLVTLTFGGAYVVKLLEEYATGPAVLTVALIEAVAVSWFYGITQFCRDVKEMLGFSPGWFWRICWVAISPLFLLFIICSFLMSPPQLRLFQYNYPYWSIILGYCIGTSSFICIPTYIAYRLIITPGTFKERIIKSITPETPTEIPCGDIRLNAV
UniProt Q01959, whole entry: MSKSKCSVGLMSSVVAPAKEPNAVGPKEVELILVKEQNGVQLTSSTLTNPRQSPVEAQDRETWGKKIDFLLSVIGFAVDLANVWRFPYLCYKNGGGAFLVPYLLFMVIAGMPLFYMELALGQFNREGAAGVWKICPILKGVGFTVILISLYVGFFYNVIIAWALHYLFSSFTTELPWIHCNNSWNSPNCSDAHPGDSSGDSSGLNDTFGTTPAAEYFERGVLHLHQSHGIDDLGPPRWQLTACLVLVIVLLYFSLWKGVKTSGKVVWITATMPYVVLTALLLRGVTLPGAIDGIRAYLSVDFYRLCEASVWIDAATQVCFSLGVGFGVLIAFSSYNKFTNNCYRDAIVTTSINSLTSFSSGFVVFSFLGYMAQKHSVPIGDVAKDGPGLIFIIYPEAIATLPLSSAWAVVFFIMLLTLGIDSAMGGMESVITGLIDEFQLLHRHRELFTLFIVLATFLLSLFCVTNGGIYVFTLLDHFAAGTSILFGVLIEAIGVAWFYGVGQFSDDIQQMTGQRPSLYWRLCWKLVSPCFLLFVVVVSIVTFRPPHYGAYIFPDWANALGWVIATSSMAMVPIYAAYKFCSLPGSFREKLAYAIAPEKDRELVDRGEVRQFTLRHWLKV

How the values were obtained:
[1] = molecular target: human serotonin reuptake transporter (Homo sapiens, UniProt P31645); settings: read-out: Human IC50 (nM) hSERT; recombinant human serotonin transporter (SERT)
[2] = molecular target: human dopamine reuptake transporter (Homo sapiens, UniProt Q01959); settings: read-out: Human IC50 (nM) hDAT; recombinant human dopamine transporter (DAT)

Work on `CN1CCN(C(=O)C2(c3ccc(Cl)c(Cl)c3)CCCCC2)CC1` yielded an IC50 [1] greater than 10000 nM and an IC50 [2] of 76 nM.
